The test system of assay [1] is serum anti-estrogen IgG. In words: Competition ELISA: absorption of serum anti-estrogen IgG with specific and non-specific antigens. As to conditions: result in words. The format is binding, human. The protocol: (§1) Enzyme-linked immunosorbent assay (ELISA) was used for testing antibodies against estrogen and progesterone in the sera of patients with premenstrual asthma and with control subjects. Different rows of microtiter plates (Costar) were coated either with 100 μl of BSA concentration of 10 μg/mL or 100 μl of estrogen-BSA or progesterone-BSA optimal concentration of 10 μg/mL in 0.1 m carbonate-bicarbonate buffer (pH 9.5). Plates were incubated overnight at 4° C. and then washed three times with […] of Tris-buffered saline (TBS) containing 0.05% Tween 20, pH 7.4. […] Plates were washed with PBS-Tween 20 and then 100 μl of control or patient's serum was added to duplicate wells coated either with BSA alone or with estrogen or progesterone bound to BSA. […] Plates were incubated for 2 h (for IgG and IgM) and overnight (for IgE), and then washed four times with PBS-Tween 20. Alkaline-phosphatase-conjugated goat anti-human IgG, IgM or IgE F(ab′)2 fragment at optimal dilution of 1:700 (IgG); 1:500 (IgM) and 1:250 (IgE) was added to corresponding wells. The plates were then incubated for an additional 2 h at room temperature. […] The optical density was read at 405 nm (OD405) with a microtiter reader. […]
(§2) For this, microtiter plates were coated with hormones and blocked by the addition of 2% BSA in PBST. […] Results were calculated as a percentage of inhibition in antigen-antibody reaction. […]

Assay [2] concerns serum anti-estrogen IgE. The experiment in a line: Competition ELISA: absorption of serum anti-estrogen IgE with specific and non-specific antigens. As to conditions: result in words. The format is binding, human. The protocol: as §1, §2
Background: In an ELISA, binding on a coated surface is turned into a signal by an enzyme label.

Take human serum albumin [HSA]: in assay [1], the “Absorption of serum IgG antibodies by antigen added to the liquid phase” value is reported as “did not absorb”. In addition, the “Absorption of serum IgE antibodies by antigen added to the liquid phase” value in assay [2] is listed as “did not absorb”.
